Test results published in ChEMBL document CHEMBL3085655, “4β-Methyl-5-(3-hydroxyphenyl)morphan opioid agonist and partial agonist derived from a 4β-methyl-5-(3-hydroxyphenyl)morphan pure antagonist” (J Med Chem, 2013).

Amino acid sequences for entries named in this document (tags omitted).
UniProt P35372, whole entry: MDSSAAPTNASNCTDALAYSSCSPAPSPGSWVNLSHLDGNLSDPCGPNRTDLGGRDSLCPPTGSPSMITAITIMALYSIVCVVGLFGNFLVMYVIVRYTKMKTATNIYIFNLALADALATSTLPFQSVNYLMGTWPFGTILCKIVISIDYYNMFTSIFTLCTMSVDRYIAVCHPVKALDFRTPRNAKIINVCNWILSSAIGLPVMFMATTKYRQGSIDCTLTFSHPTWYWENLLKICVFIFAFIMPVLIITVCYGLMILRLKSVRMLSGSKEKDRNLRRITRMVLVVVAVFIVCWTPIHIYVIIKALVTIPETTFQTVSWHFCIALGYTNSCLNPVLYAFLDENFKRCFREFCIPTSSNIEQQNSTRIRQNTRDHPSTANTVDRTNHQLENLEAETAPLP

Molecular target: Mu-type opioid receptor (Homo sapiens, UniProt P35372)
Test: Intrinsic activity at human mu opioid receptor expressed in CHO cells by [35S]GTPgammaS binding assay
Format: functional, cell-based

## C[C@@H]1CN(CCCc2ccccc2)[C@@H]2CCC[C@]1(c1cccc(O)c1)C2
  Intrinsic activity: > 5 µM
